The chains behind the UniProt entries cited, without tags or fusion partners. Where a name states a change or a piece, a line headed by the entry shows the natural chain unless it says otherwise.
UniProt Q9UPP1: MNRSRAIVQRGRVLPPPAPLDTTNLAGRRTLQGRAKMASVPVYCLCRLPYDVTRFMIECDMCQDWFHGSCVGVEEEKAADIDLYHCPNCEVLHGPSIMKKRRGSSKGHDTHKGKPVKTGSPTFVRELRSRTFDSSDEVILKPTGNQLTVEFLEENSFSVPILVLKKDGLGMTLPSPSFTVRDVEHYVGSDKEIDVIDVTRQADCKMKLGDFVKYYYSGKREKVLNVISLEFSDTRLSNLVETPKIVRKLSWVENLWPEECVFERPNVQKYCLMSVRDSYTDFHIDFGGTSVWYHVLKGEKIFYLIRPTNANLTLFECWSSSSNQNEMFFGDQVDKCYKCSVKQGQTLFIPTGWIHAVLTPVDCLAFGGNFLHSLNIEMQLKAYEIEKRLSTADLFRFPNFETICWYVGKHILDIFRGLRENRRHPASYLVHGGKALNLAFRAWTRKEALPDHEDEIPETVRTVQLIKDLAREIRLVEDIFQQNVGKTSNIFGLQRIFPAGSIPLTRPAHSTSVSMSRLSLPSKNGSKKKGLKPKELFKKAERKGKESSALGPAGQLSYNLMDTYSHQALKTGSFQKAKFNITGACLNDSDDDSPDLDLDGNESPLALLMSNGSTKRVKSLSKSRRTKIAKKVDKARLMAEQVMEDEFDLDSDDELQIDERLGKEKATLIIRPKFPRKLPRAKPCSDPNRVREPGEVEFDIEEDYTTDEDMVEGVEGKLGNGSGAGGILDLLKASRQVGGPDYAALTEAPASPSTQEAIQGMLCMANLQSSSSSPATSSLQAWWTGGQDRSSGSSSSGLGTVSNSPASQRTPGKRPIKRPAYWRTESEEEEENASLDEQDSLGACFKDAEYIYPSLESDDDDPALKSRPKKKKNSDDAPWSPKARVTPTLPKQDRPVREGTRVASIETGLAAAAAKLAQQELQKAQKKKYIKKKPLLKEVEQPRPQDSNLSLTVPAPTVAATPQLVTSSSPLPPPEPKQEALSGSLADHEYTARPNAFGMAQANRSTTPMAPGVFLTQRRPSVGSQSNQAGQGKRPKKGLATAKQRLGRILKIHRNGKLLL

According to PMC3929130, “Identification of the KDM2/7 Histone Lysine Demethylase Subfamily Inhibitor and its Antiproliferative Activity” (Journal of Medicinal Chemistry, 2013):

Biological target: KDM7B (Homo sapiens, UniProt Q9UPP1)
Assay: KDM7B inhibition assay (MALDI-TOF MS, H3K4me3K9me2 peptide)
Type: biochemical
Settings: means of two experiments

With CN(C)NC(=O)CCC(=O)O [compound 4, daminozide] the IC50 was 19 µM.
